# Like-named read-outs stand apart in the source and are kept apart here.
# By UniProt entry, the sequences of proteins in these tests, tags left out. Where a name states a change or a piece, a line headed by the entry shows the natural chain unless it says otherwise.
# UniProt P34914: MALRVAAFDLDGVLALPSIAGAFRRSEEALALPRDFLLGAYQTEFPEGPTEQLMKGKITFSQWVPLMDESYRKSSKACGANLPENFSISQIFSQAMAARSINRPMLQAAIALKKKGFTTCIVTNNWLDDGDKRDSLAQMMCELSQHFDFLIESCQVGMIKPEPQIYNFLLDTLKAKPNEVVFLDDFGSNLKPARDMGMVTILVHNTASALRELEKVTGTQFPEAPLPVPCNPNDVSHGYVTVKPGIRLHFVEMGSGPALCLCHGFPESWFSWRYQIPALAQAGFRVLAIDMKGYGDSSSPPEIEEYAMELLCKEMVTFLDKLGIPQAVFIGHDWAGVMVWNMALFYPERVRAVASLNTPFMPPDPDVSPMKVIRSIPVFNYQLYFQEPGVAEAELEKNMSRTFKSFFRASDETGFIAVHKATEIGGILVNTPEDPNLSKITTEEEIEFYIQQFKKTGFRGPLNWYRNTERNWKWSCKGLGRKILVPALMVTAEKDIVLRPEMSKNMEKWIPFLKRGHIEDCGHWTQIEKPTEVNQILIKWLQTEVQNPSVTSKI
# UniProt P34913, whole entry: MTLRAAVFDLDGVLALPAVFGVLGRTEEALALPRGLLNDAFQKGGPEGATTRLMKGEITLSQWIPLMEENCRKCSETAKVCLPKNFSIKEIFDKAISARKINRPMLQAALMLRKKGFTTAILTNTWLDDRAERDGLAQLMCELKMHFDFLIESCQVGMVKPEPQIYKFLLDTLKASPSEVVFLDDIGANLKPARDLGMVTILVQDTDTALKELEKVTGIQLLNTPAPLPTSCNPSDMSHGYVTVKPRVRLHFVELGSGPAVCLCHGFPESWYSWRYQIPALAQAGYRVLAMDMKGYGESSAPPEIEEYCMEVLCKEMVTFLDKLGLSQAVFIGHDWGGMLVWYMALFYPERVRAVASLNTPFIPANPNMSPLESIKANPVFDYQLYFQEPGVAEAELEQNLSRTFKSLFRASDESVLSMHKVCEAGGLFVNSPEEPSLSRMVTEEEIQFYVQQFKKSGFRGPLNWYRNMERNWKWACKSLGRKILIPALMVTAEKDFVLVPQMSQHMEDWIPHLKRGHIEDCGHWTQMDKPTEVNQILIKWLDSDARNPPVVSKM
# How the values were obtained:
# mouse and human sEH = assay: sEH IC50 assay, comparisons of the text made for both enzymes or without naming the enzyme; format: biochemical
# mouse sEH = biological target: T1, mouse sEH (Mus musculus, UniProt P34914); assay: Inhibition of recombinant mouse sEH, IC50 assay with 4-nitrophenyl-trans-2,3-epoxy-3-phenylpropyl carbonate as substrate; format: biochemical
# T1 construct: made in house; host or cells: baculovirus expression system
# human sEH = human sEH (Homo sapiens, UniProt P34913); assay: Inhibition of recombinant human sEH, IC50 assay with 4-nitrophenyl-trans-2,3-epoxy-3-phenylpropyl carbonate as substrate
# [1] = Pharmacokinetics after oral gavage in mice; conditions: 5 mg/kg orally
# [2] = Table 4, […] enzyme, 5 min preincubation, pH 7.4, 30° C., means ± SD, read-out: IC50 (μM) Mouse sEH
# [3] = read-out: IC50 (μM) Mouse sEH, Table 4, […] enzyme, 5 min preincubation, pH 7.4, 30° C., means ± SD
# [4] = read-out: IC50 (μM) Human sEH, pH 7.4
smiles,measurement,setting,value
"O=C(O)CCCCCCCCCCCNC(=O)NC12CC3CC(CC(C3)C1)C2 [Compound 687, 1-(1-adamantyl)-3-(12-dodecanoic acid)urea]",inhibition of both the mouse and human enzymes,mouse and human sEH,excellent inhibitor
"C=CCOC(=O)CCCCCCCCCCCNC(=O)NC12CC3CC(CC(C3)C1)C2 [Compound 781, 1-(1-Adamantyl)-3-(11-allyloxycarbonylundecyl)urea]",IC50,mouse sEH; [2],0.05 ± 0.01 µM
"O=C(NCCCCCCCCCCCC(=O)OCc1ccccc1Cl)NC12CC3CC(CC(C3)C1)C2 [Compound 782, 1-(1-Adamantyl)-3-(11-(2-chlorobenzyl)oxycarbonylundecyl)urea]",IC50,mouse sEH,0.1 ± 0.01 µM
same,IC50,human sEH,0.29 ± 0.01 µM
"CCCOC(=O)CCCCCCCCCCCNC(=O)NC12CC3CC(CC(C3)C1)C2 [Compound 783, 1-(1-Adamantyl)-3-(11-propoxycarbonylundecyl)urea]",IC50,mouse sEH; [2],0.05 ± 0.01 µM
"CC(C)OC(=O)CCCCCCCCCCCNC(=O)NC12CC3CC(CC(C3)C1)C2 [Compound 785, 1-(1-Adamantyl)-3-(11-iso-propoxycarbonylundecyl)urea]","AUC (bioavailability), fold increase over 687",[1],similar
same,IC50,mouse sEH; [3],0.05 ± 0.01 µM
"O=C(NCCCCCCCCCCCC(=O)OCc1cccc2ccccc12)NC12CC3CC(CC(C3)C1)C2 [Compound 787, 1-(1-Adamantyl)-3-(11-(1-naphthyl)methoxycarbonylundecyl)urea]",IC50,mouse sEH,0.09 ± 0.01 µM
same,IC50,human sEH,0.21 ± 0.01 µM
"C#CCOC(=O)CCCCCCCCCCCNC(=O)NC12CC3CC(CC(C3)C1)C2 [Compound 788, 1-(1-Adamantyl)-3-(11-propagyloxycarbonylundecyl)urea]",IC50,mouse sEH; [2],0.05 ± 0.01 µM
"CC(C)NC(=O)CCCCCCCCCCCNC(=O)NC12CC3CC(CC(C3)C1)C2 [Compound 793, 1-(1-Adamantyl)-3-(11-isopropylaminocarbonylundecyl)urea]",IC50,human sEH; [4],0.1 ± 0.01 µM
"CCCCOC(=O)CCCCCCCCCCCNC(=O)NC12CC3CC(CC(C3)C1)C2 [Compound 800, 1-(1-Adamantyl)-3-(11-butoxycarbonylundecyl)urea]",IC50,mouse sEH; [2],0.05 ± 0.01 µM
same,IC50,human sEH; [4],0.1 ± 0.01 µM
CC(C)(C)OC(=O)CCCCCCCCCCCNC(=O)NC12CC3CC(CC(C3)C1)C2 [Compound 801],IC50,mouse sEH; [2],0.05 ± 0.01 µM
same,IC50,human sEH; [4],0.1 ± 0.01 µM
"CCC(C)OC(=O)CCCCCCCCCCCNC(=O)NC12CC3CC(CC(C3)C1)C2 (stereo not drawn) [Compound 802, 1-(1-Adamantyl)-3-(11-sec-butoxycarbonylundecyl)urea]","AUC (bioavailability), fold increase over 687",[1],similar
same,IC50,mouse sEH; [2],0.05 ± 0.01 µM
"CC(C)COC(=O)CCCCCCCCCCCNC(=O)NC12CC3CC(CC(C3)C1)C2 [Compound 803, 1-(1-Adamantyl)-3-(11-isobutoxycarbonylundecyl)urea]",IC50,mouse sEH; [3],0.05 ± 0.01 µM

# Reference: patent US20050164951A1, “Inhibitors for the soluble epoxide hydrolase” (The Regents of the University of California, priority 2003, published 2005)
